From patent US12714711B2, “Salts of neuroceuticals and uses thereof” (priority 2020, dated 2026)

What was measured:
[1] = Carr Index (USP 1174), flowability; type: physicochemical
[2] = Water solubility at 25° C.

Row | Carr Index [1] | Substance | water solubility [2]
1 | 33% | clozapine:enriched tannic acid 2:1 salt | 
2 | 19% | clozapine:enriched tannic acid 4:1 salt | 
3 |  | olanzapine:pantothenic acid 5:1 salt | 128 mg/mL
